Values quoted from earlier work, collected in patent US20250026848A1, “IDENTIFICATION OF PATHOGENIC IMMUNE CELL SUBSETS IN CHECKPOINT INHIBITOR-INDUCED MYOCARDITIS” (U.S. GOVERNMENT AS REPRESENTED BY THE DEPARTMENT OF …, priority 2021, published 2025).

Test system: ICI myocarditis
Settings: patients with ICI myocarditis, reference 53; cited from earlier work

## abatacept
  treatment of ICI myocarditis: used effectively to treat ICI myocarditis
